The source of these data is US10301371B2, “Cyclic monomer and dimer peptides having integrin antagonist activity” (Protagonist Therapeutics, Inc., priority 2014, dated 2019).

pIC50: −log10 of the molar value. Where only a bound is given, the exact number is not on record here.

The target in this experiment is T1, α4β7 (RPMI 8866 cells) (Homo sapiens, UniProt P13612+P26010).
T1 construct: host or cells: RPMI 8866 cells
T1 sequence (P13612 34-1032): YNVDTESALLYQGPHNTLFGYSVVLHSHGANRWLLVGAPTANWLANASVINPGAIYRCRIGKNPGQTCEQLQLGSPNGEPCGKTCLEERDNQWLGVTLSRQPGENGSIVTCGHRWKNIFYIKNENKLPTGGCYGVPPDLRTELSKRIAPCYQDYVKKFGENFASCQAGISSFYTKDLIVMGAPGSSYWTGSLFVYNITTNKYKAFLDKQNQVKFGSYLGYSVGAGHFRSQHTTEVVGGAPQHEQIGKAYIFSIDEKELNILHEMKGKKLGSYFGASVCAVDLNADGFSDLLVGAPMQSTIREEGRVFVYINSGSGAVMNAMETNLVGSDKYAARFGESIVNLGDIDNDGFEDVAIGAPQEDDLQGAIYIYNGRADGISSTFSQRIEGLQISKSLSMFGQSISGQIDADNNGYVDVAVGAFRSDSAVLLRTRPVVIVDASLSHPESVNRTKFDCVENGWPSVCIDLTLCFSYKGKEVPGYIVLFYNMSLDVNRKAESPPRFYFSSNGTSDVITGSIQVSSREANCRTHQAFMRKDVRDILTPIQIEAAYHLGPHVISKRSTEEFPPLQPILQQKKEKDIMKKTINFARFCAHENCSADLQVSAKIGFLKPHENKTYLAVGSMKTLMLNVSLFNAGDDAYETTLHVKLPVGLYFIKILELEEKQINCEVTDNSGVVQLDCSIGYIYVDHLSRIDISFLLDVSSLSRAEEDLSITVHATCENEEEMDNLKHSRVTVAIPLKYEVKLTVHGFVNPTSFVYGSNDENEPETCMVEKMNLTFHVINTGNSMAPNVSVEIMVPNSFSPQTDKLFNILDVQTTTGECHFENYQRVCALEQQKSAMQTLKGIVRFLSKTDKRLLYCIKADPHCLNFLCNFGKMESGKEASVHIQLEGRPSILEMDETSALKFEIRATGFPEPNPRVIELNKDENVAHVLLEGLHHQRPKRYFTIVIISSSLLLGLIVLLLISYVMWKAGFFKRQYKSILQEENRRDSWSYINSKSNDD
T1 sequence (P26010 20-798): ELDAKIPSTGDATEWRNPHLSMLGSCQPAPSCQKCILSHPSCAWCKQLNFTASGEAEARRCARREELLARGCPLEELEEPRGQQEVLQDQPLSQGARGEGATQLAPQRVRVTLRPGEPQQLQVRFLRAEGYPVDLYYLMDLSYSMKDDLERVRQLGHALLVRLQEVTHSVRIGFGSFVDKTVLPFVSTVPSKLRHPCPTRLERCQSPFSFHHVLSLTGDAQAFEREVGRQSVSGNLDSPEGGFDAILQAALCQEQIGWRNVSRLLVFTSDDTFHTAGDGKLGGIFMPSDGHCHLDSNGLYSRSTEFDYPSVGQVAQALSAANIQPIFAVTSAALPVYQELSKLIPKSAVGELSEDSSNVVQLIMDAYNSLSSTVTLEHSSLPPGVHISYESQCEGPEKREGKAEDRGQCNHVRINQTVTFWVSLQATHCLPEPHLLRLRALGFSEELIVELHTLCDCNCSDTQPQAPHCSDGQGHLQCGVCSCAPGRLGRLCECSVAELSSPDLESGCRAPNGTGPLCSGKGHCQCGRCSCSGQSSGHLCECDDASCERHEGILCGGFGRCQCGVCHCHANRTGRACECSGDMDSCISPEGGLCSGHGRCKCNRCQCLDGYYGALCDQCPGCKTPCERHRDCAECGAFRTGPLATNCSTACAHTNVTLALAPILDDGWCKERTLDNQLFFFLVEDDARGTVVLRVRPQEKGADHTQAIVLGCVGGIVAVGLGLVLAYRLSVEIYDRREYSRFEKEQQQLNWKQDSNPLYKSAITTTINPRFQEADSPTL
Nature of the experiment: α4β7-MAdCAM Cell Adhesion Assay. Type of experiment: cell-based. As to conditions: potency, read-out: Cell Adhesion A4B7. How it is done: α4β7-MAdCAM Cell Adhesion Assay
RPMI 8866 cells (Sigma #95041316) are cultured in RPMI 1640 HEPES medium (Invitrogen #22400-089) supplemented with 10% serum (Fetal Bovine Serum, Invitrogen #16140-071), 1 mM sodium pyruvate (Invitrogen #11360-070), 2 mM L-glutamine (Invitrogen #25030-081) and Penicillin-Streptomycin (Invitrogen #15140-122) at 100 units of penicillin and 100 lug of streptomycin per ml. The cells are washed two times in DMEM medium (ATCC #30-2002) supplemented with 0.1% BSA, 10 mM HEPES pH 7 and 1 mM MnCl2. The cells are re-suspended in supplemented DMEM medium at a density of 4×10^6 cells/ml.
A Nunc MaxiSorp plate was coated with rh MAdCAM-1/Fc Chimera (R&D #6065-MC) at 200 ng per well in 50 ul per well in 1×PBS and incubated at 4° C. overnight. The solution was then removed by shaking, blocked with 250 ul per well PBS containing 1% BSA, and incubated at 37° C. for 1 hr. The solution was removed by shaking. Peptides are diluted by serial dilution in a final volume of 50 ul per well (2× concentration). To each well, 50 ul of cells (200,000 cells) are added and the plate is incubated at 37° C., 5% CO2 for 30-45 min to allow cell adhesion. The wells are washed manually three times (100 ul per wash) with supplemented DMEM. After the final wash, 100 ul/well of supplemented DMEM and 10 ul/well of MTT reagent (ATTC cat#30-1010K) are added. The plate is incubated at 37° C., 5% CO2 for 2-3 hrs until a purple precipitate is visible. 100 ul of Detergent Reagent (ATTC cat#30-1010K) is added to each well. The plate is covered from the light, wrapped in Parafilm to prevent evaporation, and left overnight at room temperature in the dark. The plate is shaken for 5 min and the absorbance at 570 nm is measured. To calculate the dose response, the absorbance value of control wells not containing cells is subtracted from each test well.
For `CC(C)C[C@@H]1NC(=O)[C@H]([C@@H](C)O)NC(=O)[C@H](CC(=O)O)NC(=O)[C@H](CO)NC(=O)[C@H](CCCNC(=N)N)N(C)C(=O)[C@@H](C)NC(=O)[C@@H](C)NC1=O` [compound 477], the pIC50 was < 5.00.
As to `CC(C)C[C@@H]1NC(=O)[C@H]([C@@H](C)O)NC(=O)[C@H](CC(=O)O)NC(=O)[C@H](CO)NC(=O)[C@H](CCCNC(=N)N)N(C)C(=O)[C@@H](C)NC(=O)[C@@H](CC(N)=O)NC1=O` [compound 479], the pIC50 was < 5.00.
As for `CC(C)C[C@@H]1NC(=O)[C@H]([C@@H](C)O)NC(=O)[C@H](CC(=O)O)NC(=O)[C@H](CO)NC(=O)[C@H](CCCNC(=N)N)N(C)C(=O)[C@@H](C)NC(=O)[C@@H](CCC(=O)O)NC1=O` [compound 484], the pIC50 was < 6.00.
With `CC(C)C[C@@H]1NC(=O)[C@H]([C@@H](C)O)NC(=O)[C@H](CC(=O)O)NC(=O)[C@H](CO)NC(=O)[C@H](CCCNC(=N)N)N(C)C(=O)[C@@H](Cc2ccccc2)NC(=O)[C@@H](C)NC1=O` [compound 495] the figure was < 5.00.
